The numbers were not newly measured in patent US20180318279A1 (priority 2015, published 2018), which cites them from elsewhere.

The series deals with inflamed paw; Mu opioid receptors. The conditions noted are these: in vivo, cited from earlier work.

For the compound `CN1CC[C@]23c4c5ccc(O)c4O[C@H]2[C@@H](O)C=C[C@H]3[C@H]1C5` [morphine], the “reversal of effect by naltrexone and methylnaltrexone” value is reported as “reversed by naltrexone but not methylnaltrexone”. Besides, the paw affected result (sc) is “affected both the inflamed and non-inflamed paw”.
